Target: T1, hKMT2D SET domain (Homo sapiens, UniProt O14686)
T1 construct: expressing amino acids 5308-5537 of the hKMT2D catalytic SET domain; 6xHis + TEV site (N, cleaved yes); made in house; host or cells: KMT2D Win-SET: Sf21 (baculovirus); WDR5, RbBP5, Ash2L, DPY30: E. coli Rosetta 2 (DE3); H3 peptides bought from Chinese Peptide Company
Assay: WRAD2 titration: MTase-Glo steady-state substrate matrix experiments
Assay type: biochemical
Settings: assigned from the WRAD2 titration fits
Method: SET domain activity was monitored with a quantitative endpoint assay determining AdoHcy production using MTase-Glo by Promega.[39] Assays were performed as time courses at room temperature with buffer constituents, 50 mM Tris, pH 7.5, 50 mM NaCl, 1 mM DTT, 1% DMSO, and 0.005% w/v Triton X-100 in deionized water. […] Addition of 1 μL of 0.5% v/v TFA was used to stop the methylation reaction at defined time points; 1 μL of 6× concentrated MTase-Glo reagent was added to each well and incubated at room temperature. After 30 min, 6 μL of the prefiltered MTase-Glo detection reagent was added and incubated for a further 30 min at room temperature. Luminescence was measured using an Envision 2101 Multilabel plate reader, and product concentrations were calculated using an AdoHcy standard curve. Steady-state rates were obtained by plotting AdoHcy production over time and normalized to SET domain concentration. Experiments were performed in triplicate and expressed as the mean ± SD. Data were analyzed using nonlinear regression in GraphPad Prism v9.1.
Steady-state rates were measured in substrate matrix experiments. Data were globally fitted to ternary Bi–Bi and Ping–Pong models to obtain kcat and KM parameters (eqs 1 and 2).
The ternary Bi–Bi model [drawing 1] 1 The Ping–Pong model [drawing 2] […]

Q: How did the Kd turn out when “Ash2L: absent small or homoeotic 2-like, WRAD2 component” was run?
A: The Kd was 4 nM.

— paper PMC9494746, “Dissecting the Kinetic Mechanism of Human Lysine Methyltransferase 2D and Its Interactions with the WRAD2 Complex” (Biochemistry, 2022)
